Assay results reported in US6403637.

Target: rat collagenase-3 receptor (170 kDa protein) of UMR 106-01 rat osteosarcoma cells and other rat cells (rat)
Assay: ^125I-labeled ligand at 8 nM on UMR cells, triplicate wells

Specific binding (fmol/2.6 × 10^5 cells): 35.3
Substance: human collagenase-3 (human MMP-13) (from UniProt P45452 20-471) (enzyme)
